Structures can show the parent of a compound that is named as a salt.
Target: T1, human norepinephrine transporter (hNET) (Homo sapiens, UniProt P23975)
T1 construct: expressed in transfected cells; host or cells: HEK-293, membranes
Assay: hNET receptor binding, [125I]-RTI-55, HEK-293 membranes
Conditions: Cheng-Prusoff, read-out: NET Ki
Method: Cell pastes of HEK-293 cells transfected with a human norepinephrine transporter cDNA were prepared. The cell pastes were resuspended in 400 to 700 ml of Krebs-HEPES assay buffer (25 mM HEPES, 122 mM NaCl, 3 mM KCl, 1.2 mM MgSO4, 1.3 mM CaCl2, and 11 mM glucose, pH 7.4) with a Polytron homogenizer at setting 7 for 30 seconds. Aliquots of membranes (5 mg/ml protein) were stored in liquid nitrogen until used.
The binding assay was set up in Beckman deep-well polypropylene plates with a total volume of 250 μl containing: drug (10^−5M to 10^−12M), cell membranes, and […] [^125I]-RTI-55 (Perkin Elmer, NEX-272; specific activity 2200 Ci/mmol). The reaction was incubated by gentle agitation for 90 minutes at room temperature and was terminated by filtration through Whatman GF/C filter plates using a Brandel 96-well plate harvester. Scintillation fluid (100 μl) was added to each well, and bound [^125I]-RTI-55 was determined using a Wallac Trilux Beta Plate Counter. Test compounds were run in duplicate, and specific binding was defined as the difference between binding in the presence and absence of 10 μM desipramine.
Excel and GraphPad Prism software were used for data calculation and analysis. IC50 values were converted to Ki values using the Cheng-Prusoff equation. The Ki values (nM) for the hNET are reported below in Table 1.

The chains behind the UniProt entries cited, without tags or fusion partners.
UniProt P23975, whole entry: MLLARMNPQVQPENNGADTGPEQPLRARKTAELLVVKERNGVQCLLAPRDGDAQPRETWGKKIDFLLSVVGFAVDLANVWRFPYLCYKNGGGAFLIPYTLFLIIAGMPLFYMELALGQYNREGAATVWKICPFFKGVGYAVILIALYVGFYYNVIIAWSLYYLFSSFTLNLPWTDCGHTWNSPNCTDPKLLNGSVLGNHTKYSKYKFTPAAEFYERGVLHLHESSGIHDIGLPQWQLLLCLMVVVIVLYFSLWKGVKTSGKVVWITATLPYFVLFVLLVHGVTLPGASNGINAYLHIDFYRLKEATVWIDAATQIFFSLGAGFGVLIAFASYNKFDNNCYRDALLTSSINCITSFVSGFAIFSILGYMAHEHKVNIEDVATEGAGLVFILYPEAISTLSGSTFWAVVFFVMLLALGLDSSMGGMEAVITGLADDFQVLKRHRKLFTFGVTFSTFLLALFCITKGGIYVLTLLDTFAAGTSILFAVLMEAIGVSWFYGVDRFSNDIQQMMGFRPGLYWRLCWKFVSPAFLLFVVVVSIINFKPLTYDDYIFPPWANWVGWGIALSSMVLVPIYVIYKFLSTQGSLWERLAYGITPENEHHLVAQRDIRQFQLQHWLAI

Ki | SMILES
183 nM | COc1cc(Cl)ccc1O[C@H](c1ccccc1)[C@@H]1CNCCO1 [Example 107, (2S)-2-[(1R)-(4-chloro-2-methoxyphenoxy) (phenyl)methyl]morpholine hydrochloride]
7.6 nM | COc1cc(Cl)ccc1O[C@@H](c1ccccc1)[C@@H]1CNCCO1.Cl [Example 38, (2S)-2-[(1S)-(4-chloro-2-methoxyphenoxy) (phenyl)methyl] morpholine hydrochloride]
97.9 nM | COc1cc(Cl)ccc1O[C@H](c1ccccc1)[C@H]1CNCCO1 [Example 109, (2R)-2-[(1R)-(4-chloro-2-methoxyphenoxy) (phenyl)methyl]morpholine succinate]
2020 nM | COc1cc(Cl)ccc1O[C@@H](c1ccccc1)[C@H]1CNCCO1 [Example 108, (2R)-2-[(1S)-(4-chloro-2-methoxyphenoxy) (phenyl)methyl]morpholine hydrochloride]
